Measurements reported in patent US20100278782A1, “DIFFERENTIATION OF RAT LIVER EPITHELIAL CELLS INTO HEPATOCYTE-LIKE CELLS” (Vrije Universiteit Brussel, priority 2006, published 2010).

Tested on: rat hepatocyte HDAC
Test: Fluor de Lys HDAC inhibition assay in crude rat hepatocyte lysates
Type: biochemical
Conditions: Fluor de Lys substrate, n = 3 or 4, read-out: Estimated IC50 values for tested compounds
Procedure: Screening of the HDAC inhibiting potencies of the above compounds was performed in crude rat hepatocyte lysates, prepared from freshly isolated cells, using the Fluor de Lys HDAC inhibition assay as detailed in example 9.
A two-step collagenase perfusion technique was used to isolate hepatocytes from male outbred Sprague-Dawley rats (200-300 g; Charles River Laboratories, Brussels, Belgium), which were kept under controlled environmental conditions (12 h light-dark cycle) and fed a standard diet (Animalabo A 04) with water ad libitum. […]
Inhibition of HDAC activity was assessed in crude rat hepatocyte lysates by the Fluor de lys HDAC inhibition protocol as outlined herein: […]
1. bring 10 μl inhibitor/control solvents/assay buffer per well 2. add 15 μl cell extract to each well (for the blank: 15 μl boiled cell extract) 3. incubate 5 min at room temperature (cover plate with aluminium foil) 4. add 25 μl Fluor de Lys substrate to each well (40 μM solution, […]) 5. cover the plate with aluminium foil and incubate 15 min on orbital shaker 6. after 15 min, add 50 μl freshly prepared, ice-cold developer solution to each well 7. cover the plate with aluminium foil and incubate 15 min on orbital shaker 8. Measure the fluorescence in the plate reader […]

## CC(/C=C/C(=O)NO)=C\[C@@H](C)C(=O)c1ccc(N(C)C)cc1 [TSA, Trichostatin A]
  IC50: 9 ± 3 nM
